From US6303751A, “Human metabotropic glutamate receptor and related DNA compounds” (Eli Lilly and Company, priority 1995, dated 2001)

Chains of the proteins cited; added tags and fusions are not shown. Residues count along the entry.
UniProt Q13255, 19-1194 S593P/S993P: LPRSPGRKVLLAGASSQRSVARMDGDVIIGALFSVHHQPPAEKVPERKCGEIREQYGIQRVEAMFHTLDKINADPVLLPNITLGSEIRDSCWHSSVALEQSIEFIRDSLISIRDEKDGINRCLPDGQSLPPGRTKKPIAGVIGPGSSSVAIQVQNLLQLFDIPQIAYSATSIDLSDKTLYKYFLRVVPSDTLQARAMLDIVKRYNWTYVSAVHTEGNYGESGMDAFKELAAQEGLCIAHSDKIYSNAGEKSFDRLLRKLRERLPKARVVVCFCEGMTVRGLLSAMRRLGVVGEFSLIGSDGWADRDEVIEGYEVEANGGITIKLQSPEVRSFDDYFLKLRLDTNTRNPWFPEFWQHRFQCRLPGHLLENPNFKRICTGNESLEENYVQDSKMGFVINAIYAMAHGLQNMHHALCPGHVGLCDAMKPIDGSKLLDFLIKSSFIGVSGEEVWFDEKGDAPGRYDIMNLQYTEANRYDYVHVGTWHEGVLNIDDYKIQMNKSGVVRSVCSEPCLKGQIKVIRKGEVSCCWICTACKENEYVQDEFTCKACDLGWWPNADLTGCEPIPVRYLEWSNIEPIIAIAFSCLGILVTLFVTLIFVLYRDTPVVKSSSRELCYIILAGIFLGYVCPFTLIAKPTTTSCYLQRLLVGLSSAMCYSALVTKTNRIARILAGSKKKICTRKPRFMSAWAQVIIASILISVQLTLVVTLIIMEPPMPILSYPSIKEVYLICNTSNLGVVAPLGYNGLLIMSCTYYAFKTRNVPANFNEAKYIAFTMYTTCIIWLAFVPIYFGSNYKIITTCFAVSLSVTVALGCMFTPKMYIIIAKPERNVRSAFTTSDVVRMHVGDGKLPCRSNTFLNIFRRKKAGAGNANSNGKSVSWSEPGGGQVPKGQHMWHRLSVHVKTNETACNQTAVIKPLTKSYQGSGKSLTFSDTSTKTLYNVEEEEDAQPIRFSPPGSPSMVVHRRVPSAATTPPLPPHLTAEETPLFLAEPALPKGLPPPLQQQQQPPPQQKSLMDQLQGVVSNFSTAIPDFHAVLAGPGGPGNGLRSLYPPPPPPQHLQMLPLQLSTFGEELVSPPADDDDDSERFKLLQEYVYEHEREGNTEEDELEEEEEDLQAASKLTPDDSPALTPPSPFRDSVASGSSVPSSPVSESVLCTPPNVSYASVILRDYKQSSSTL

Molecular target: T1, HSmGluR1 receptor (human metabotropic glutamate receptor) expressed in Xenopus oocytes (Homo sapiens, UniProt Q13255)
T1 construct: RNA transcripts encoding the HSmGluR1 receptor were produced by enzymatic transcription from pRS117; expressed in transfected cells; host or cells: Xenopus laevis oocytes injected with in vitro transcribed RNA from pRS117
Assay: Electrophysiological recording of HSmGluR1 receptor expressed in Xenopus oocytes
Type: cell-based

SMILES: N[C@@]1(C(=O)O)CC[C@@H](C(=O)O)C1 (relative stereo) [trans-ACPD, trans-1-amino-1,3-cyclopentane dicarboxylic acid]
- EC50: 65 µM
